Test results as given in article PMC3220747.

Biological target: soluble fraction of uPAR comprising amino acids 1-277
Assay: fluorescence polarisation

Ki: 220 nM
Substance: unlabeled GFD peptide
